{"source": "patent US20240408072A1", "about": "“COMPOSITION FOR PREVENTING OR TREATING GRAVES' DISEASE COMPRISING COMPOUND CONTAINING AN IMIDAZOPYRIDINE STRUCTURE AS ACTIVE INGREDIENT” (ESGELBIO INC., priority 2021, published 2024)", "key": {"[1]": {"test_system": "Graves' disease-induced mice", "test": "Serum thyroxine (T4) in Graves' disease-induced (Ad-TSHR) mice", "type": "in vivo, BALB/c mice", "conditions": "10 mg/kg daily for three weeks, abdominal cavity, FIG. 8", "experimental": "(§1) To create a mouse model with induced Graves' disease, 6-week-old female BALB/c mice were used. The thyroid stimulating hormone receptor (TSHR) expressing adenovirus, Ad-TSHR, was purchased from VectorBuilder (Chicago, USA, www.vectorbuilder.com). A diluted solution of Ad-TSHR (3.02×10^12 VP/ml) was prepared, and 40 μl (10^10 VP/40 μl) of the virus was injected into the thigh muscle of the mice. The virus was injected three times at three-week intervals, totaling nine weeks of injections to induce overexpression of TSHR and thereby cause Graves' disease.\n(§2) In the Graves' disease-induced mouse model established in <3-1>, the therapeutic effectiveness of the imidazopyridine scaffold-bearing compounds screened in the present disclosure was evaluated. To this end, a test group of the Graves' disease-induced mice was treated with the candidate drug NE2-6, identified through screening, at a daily dose of 10 mg/kg for three weeks. PTU was used as a positive control for comparison.\n(§3) After extracting the thyroid glands from each mouse, the sizes of the thyroids were visually compared, and the concentration of thyroxine (T4) in the blood was analyzed.\nAfter administering drugs for three weeks to mice in which Graves' disease was induced by the Ad-TSHR virus over nine weeks, the serum was isolated to measure the concentration of thyroxine (T4)."}, "[2]": {"test_system": "Graves' disease-induced mice", "test": "Thyroid size in Graves' disease-induced (Ad-TSHR) mice", "type": "in vivo, BALB/c mice", "conditions": "10 mg/kg daily for three weeks, abdominal cavity, vs Ad-TSHR group, FIG. 7", "experimental": "as §1, §2, §3"}}, "data": [{"smiles": "CCCc1cc(=O)[nH]c(=S)[nH]1", "note": "[Propylthiouracil (PTU), Propylthiouracil, reference compound]", "values": [{"measurement": "serum thyroxine (T4) concentration", "setting": "[1]", "value": "significant reduction"}, {"measurement": "thyroid size (visually compared)", "setting": "[2]", "value": "effectively reduced thyroid sizes"}]}]}
